Molecular target: MlaD periplasmic domain lacking its N-terminal membrane anchor (UniProt P64604)
Assay: SEC

The chains behind the UniProt entries cited, without tags or fusion partners. Where a name states a change or a piece, a line headed by the entry shows the natural chain unless it says otherwise.
UniProt P64604: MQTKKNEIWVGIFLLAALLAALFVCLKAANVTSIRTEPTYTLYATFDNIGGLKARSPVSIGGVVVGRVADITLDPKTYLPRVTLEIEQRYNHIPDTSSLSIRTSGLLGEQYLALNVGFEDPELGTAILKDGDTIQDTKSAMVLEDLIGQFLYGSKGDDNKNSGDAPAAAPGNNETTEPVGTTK

“MlaD periplasmic domain lacking its N-terminal membrane anchor (from UniProt P64604 23-183) (domain or fragment)” was tested, and the stoichiometry N was 6.
